{
  "source": "patent US20250000863A1",
  "about": "“COMBINATION THERAPIES OF KRAS G12D INHIBITORS WITH SOS1 INHIBITORS” (MIRATI THERAPEUTICS, INC., priority 2021, published 2025)",
  "test_system": "Panc 02.03 cells harboring a KRas G12D mutation",
  "assay": "Panc0203 TGI-43 xenograft tumor volume study",
  "assay_type": "in vivo, nude/nude mice",
  "conditions": "BI-3406 50 mg/kg BID daily, alone or combined; for Average Tumor Volumes: MRTX1133 30 mg/kg BID 2x/week, i.p., 5 mice per group",
  "excerpt": "Experimental Procedures. […] When the tumors reached ˜300 mm^3 four treatment groups were established with five mice per group.",
  "data": [
    {"smiles": "COc1cc2nc(C)nc(N[C@H](C)c3cc(N)cc(C(F)(F)F)c3)c2cc1O[C@H]1CCOC1", "note": "[BI-3406]", "values": [
      {"measurement": "tumor growth inhibition", "setting": "Day 22, MRTX1133 30 mg/kg BID twice per week", "result": 28, "unit": "%"},
      {"measurement": "Average Tumor Volumes", "setting": "Study Day 1", "result": 331.672, "unit": "mm^3"},
      {"measurement": "Average Tumor Volumes", "setting": "Study Day 4", "result": 349.632, "unit": "mm^3"},
      {"measurement": "Average Tumor Volumes", "setting": "Study Day 8", "result": 400.406, "unit": "mm^3"},
      {"measurement": "Average Tumor Volumes", "setting": "Study Day 11", "result": 481.264, "unit": "mm^3"},
      {"measurement": "Average Tumor Volumes", "setting": "Study Day 15", "result": 547.852, "unit": "mm^3"},
      {"measurement": "Average Tumor Volumes", "setting": "Study Day 18", "result": 730.884, "unit": "mm^3"},
      {"measurement": "Average Tumor Volumes", "setting": "Study Day 22", "result": 892.786, "unit": "mm^3"}
    ]}
  ]
}
